System: alcoholic patients
Experiment: Observational study of alcohol abuse in human patients
Format: in vivo

For `O=C1CC[C@@]2(O)[C@H]3Cc4ccc(O)c5c4[C@@]2(CCN3CC2CC2)[C@H]1O5` [naltrexone], the “MCV, mean value of blood tests” value (T1 = 4 weeks) was 101.96, the “Anxiety Score, STAY-Y1 scale (mean score values)” value (“Anxiety Score, STAY-Y1 scale” below) (T = 0, beginning of the treatment) was 61 and the “Anxiety Score, STAY-Y1 scale” value (T = 1.1 (month 1, week 1)) was 61. For the same compound, the “Anxiety Score, STAY-Y1 scale” value (T = 1.2) was 59, the “Anxiety Score, STAY-Y1 scale” value (T = 1.3) was 53 and the “Obsessive compulsive drinking scale (OCDS) (mean score values)” value (from here on “Obsessive compulsive drinking scale”) (T = 1.3) was 41. The “Anxiety Score, STAY-Y1 scale” value (T = 1.4) was 52, the “Obsessive compulsive drinking scale” value (T = 1.4) was 40 and the “Anxiety Score, STAY-Y1 scale” value (T = 2.1) was 51. For the same compound, the “Obsessive compulsive drinking scale” value (T = 2.1) was 41, the “Anxiety Score, STAY-Y1 scale” value (T = 2.2) was 53 and the “Obsessive compulsive drinking scale” value (T = 2.2) was 43. The “Anxiety Score, STAY-Y1 scale” value (T = 2.3) was 52, the “Obsessive compulsive drinking scale” value (T = 2.3) was 42 and the “Anxiety Score, STAY-Y1 scale” value (T = 2.4) was 51. The “Obsessive compulsive drinking scale” value (T = 2.4) was 44.

From patent US20130296347A1, “Compositions and Methods for Prophylaxis and Treatment of Addictions” (Omeros Corporation, priority 2007, published 2013)
